From ChEMBL document CHEMBL1155260, “Synthesis and investigations of double-pharmacophore ligands for treatment of chronic and neuropathic pain” (2009) come the findings set out here.

Protein sequences, listed by entry. Tags and fused reporters are not part of them.
UniProt P32300, whole entry, looked up: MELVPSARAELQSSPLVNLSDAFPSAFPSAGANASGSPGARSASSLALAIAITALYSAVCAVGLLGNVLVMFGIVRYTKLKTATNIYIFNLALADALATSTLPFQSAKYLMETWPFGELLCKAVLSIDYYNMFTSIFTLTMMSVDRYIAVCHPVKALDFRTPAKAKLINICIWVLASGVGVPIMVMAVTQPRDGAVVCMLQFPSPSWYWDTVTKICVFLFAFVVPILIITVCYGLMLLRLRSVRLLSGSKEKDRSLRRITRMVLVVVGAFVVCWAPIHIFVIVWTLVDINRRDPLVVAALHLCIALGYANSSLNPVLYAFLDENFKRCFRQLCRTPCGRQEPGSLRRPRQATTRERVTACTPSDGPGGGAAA

In test [1] the target is Delta-type opioid receptor (Mus musculus) (UniProt P32300). Put plainly: Antagonist activity at delta opioid receptor in ICR mouse vas deferens assessed as reversal of DPDPE-induced inhibition of electrically-stimulated muscle contraction at 1 uM.
The next test concerns Rattus norvegicus. Put plainly: Antinociceptive activity in intrathecally dosed Sprague-Dawley rat of L5 and L6 spinal nerve ligated chronic neuropathic pain model assessed as inhibition of injury related abnormal pain.

The structures appear in SMILES notation. Active and inactive are the calls of the source. The rule behind the calls is not given here.

For `COc1ccc2c(c1)c(CC(=O)O)c(C)n2C1CCN(CCc2ccccc2)CC1`, the result (in test [1]; in the test on Rattus norvegicus) was inactive.
Turning to `Cc1c(CC(=O)O)c2ccccc2n1C1CCN(C)CC1`, the outcome (in test [1]; with Rattus norvegicus) was inactive.
For the compound `COc1ccc2c(c1)c(CC(=O)O)c(C)n2C1CCN(C)CC1`, the result (in test [1]; in the test on Rattus norvegicus) was inactive.
For `Cc1c(CC(=O)O)c2ccccc2n1C1CCN(CCc2ccccc2)CC1`, the outcome (in test [1]; with Rattus norvegicus) was inactive.
